This test concerns the target human recombinant VAP-1 (SSAO/VAP-1 enzyme) (Homo sapiens (Human), UniProt Q16853). The experiment in a line: In vitro inhibition of SSAO activity on human recombinant VAP-1 (colorimetric, benzylamine substrate). As to conditions: recombinant SSAO/VAP-1 in CHO cell homogenate, 1 mM benzyl amine. The test is classed as biochemical. The procedure:
For determining the SSAO/VAP-1 activity, the colorimetric method described by Holt, A (Holt, A., Anal. Biochem. 244, 384, 1997) for monoamine oxidase and analogous enzymes was used. Recombinant SSAO/VAP-1 enzyme was expressed in Chinese Hamster Ovary cells (CHO). These cells and cell cultures have been described earlier (Smith, D. J. et al, J. Exp. Med. 188, 17, 1998). The cell homogenate was prepared as follows: a suspension was made of approximately 3.6×10^8 cells in 25 ml lysation buffer (150 mM NaCl, 10 mM Tris-base pH 7.2, 1.5 mM MgCl2, 1% NP40), that was stirred for 1 night and incubated at 4° C. The homogenate was centrifugated (18000 g). The supernatant was used directly afterwards for the measurement. SSAO/VAP-1 activity measurement was carried out as follows on 96 precisely microtitrated plates, a given amount of inhibitor was added to each. The amount of the inhibitors varied among the measurements, the final concentration being between 1 nM and 50 μM in general, in 20 μl aqueous total volume for all cases. […] The plates were incubated for 30 min at 37° C. and the background absorbance was measured at 490 nm by a Wallac Victor II apparatus. […] The increase in the absorbance showing the SSAO/VAP-1 activity was measured at 490 nm. The inhibition was calculated in the % of the control absorbance corrected with the background absorbance, IC50 values were calculated using GraphPad Prism. […]

The chains behind the UniProt entries cited, without tags or fusion partners. Where a name states a change or a piece, a line headed by the entry shows the natural chain unless it says otherwise.
UniProt Q16853: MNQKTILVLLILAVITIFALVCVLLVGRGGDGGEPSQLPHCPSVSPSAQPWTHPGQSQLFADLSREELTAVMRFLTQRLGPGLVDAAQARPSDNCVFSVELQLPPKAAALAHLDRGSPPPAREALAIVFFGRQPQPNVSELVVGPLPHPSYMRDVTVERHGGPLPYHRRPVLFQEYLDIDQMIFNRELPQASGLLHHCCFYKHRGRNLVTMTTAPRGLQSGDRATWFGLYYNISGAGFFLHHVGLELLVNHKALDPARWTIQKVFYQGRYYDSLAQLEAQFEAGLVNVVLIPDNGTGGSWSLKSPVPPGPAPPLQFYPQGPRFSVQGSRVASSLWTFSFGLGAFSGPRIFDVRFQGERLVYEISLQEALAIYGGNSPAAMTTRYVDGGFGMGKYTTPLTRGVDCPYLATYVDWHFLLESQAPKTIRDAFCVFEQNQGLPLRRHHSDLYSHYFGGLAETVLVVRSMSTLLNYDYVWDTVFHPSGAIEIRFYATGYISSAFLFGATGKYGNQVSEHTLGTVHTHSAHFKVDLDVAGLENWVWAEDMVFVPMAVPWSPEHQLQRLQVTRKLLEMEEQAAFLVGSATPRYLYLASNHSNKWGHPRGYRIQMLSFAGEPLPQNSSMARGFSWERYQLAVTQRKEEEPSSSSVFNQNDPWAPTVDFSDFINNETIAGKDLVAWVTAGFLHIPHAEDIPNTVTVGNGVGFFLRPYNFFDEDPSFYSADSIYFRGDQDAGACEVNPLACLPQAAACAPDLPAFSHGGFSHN

With `CCOc1c(C=NO)c(=O)n(C)c(=O)n1C` [Compound 16, 6-Ethoxy-1,3-dimethyl-2,4-dioxo-1,2,3,4-tetrahydropyrimidine-5-carbaldehyde oxime], the IC50 was 53 µM.
